From PubChem BioAssay (NCI)
Some tests of the compounds listed are not included; inactive here does not mean inactive elsewhere.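 Where inhibition never reached the appropriate level, the endpoint shown equals the highest concentration tested. Otherwise, values were interpolated linearly from a five-concentration, 48-hour dose response in 96-well plates. Here, GI50 denotes the concentration required for 50% inhibition of growth. TGI: total growth inhibition.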

Columns and labels:
Test in all cases: NCI anticancer screen, dose series, 48 h; in the data active = GI50 below about 0.43 µM; inactive = the rest
HCC-2998 colon = test system: HCC-2998 colon
SF-295 CNS = test system: SF-295 CNS
SK-MEL-28 melanoma = test system: SK-MEL-28 melanoma
KM12 colon = test system: KM12 colon
HCT-116 colon = test system: HCT-116 colon
HCT-15 colon = test system: HCT-15 colon
CAKI-1 renal = test system: CAKI-1 renal
NCI-H522 lung = test system: NCI-H522 lung
NCI/ADR-RES ovarian = test system: NCI/ADR-RES ovarian
OVCAR-3 ovarian = test system: OVCAR-3 ovarian
TK-10 renal = test system: TK-10 renal
NCI-H23 lung = test system: NCI-H23 lung
CCRF-CEM leukemia = test system: CCRF-CEM leukemia
UO-31 renal = test system: UO-31 renal
M14 melanoma = test system: M14 melanoma
MCF7 breast = test system: MCF7 breast
U251 CNS = test system: U251 CNS
HT29 colon = test system: HT29 colon
ACHN renal = test system: ACHN renal
RXF 393 renal = test system: RXF 393 renal
OVCAR-8 ovarian = test system: OVCAR-8 ovarian
T-47D breast = test system: T-47D breast
SW-620 colon = test system: SW-620 colon
MALME-3M melanoma = test system: MALME-3M melanoma
SR leukemia = test system: SR leukemia
HL-60(TB) leukemia = test system: HL-60(TB) leukemia
NCI-H226 lung = test system: NCI-H226 lung
MOLT-4 leukemia = test system: MOLT-4 leukemia
LOX IMVI melanoma = test system: LOX IMVI melanoma
786-0 renal = test system: 786-0 renal
K-562 leukemia = test system: K-562 leukemia
UACC-62 melanoma = test system: UACC-62 melanoma
HOP-62 NSCLC = test system: HOP-62 NSCLC
EKVX NSCLC = test system: EKVX NSCLC
COLO 205 colon = test system: COLO 205 colon
SF-268 CNS = test system: SF-268 CNS
OVCAR-5 ovarian = test system: OVCAR-5 ovarian
MDA-MB-231 breast = test system: MDA-MB-231 breast
SF-539 CNS = test system: SF-539 CNS
MDA-N = test system: MDA-N
SNB-19 CNS = test system: SNB-19 CNS
MDA-MB-435 = test system: MDA-MB-435
A549 NSCLC = test system: A549 NSCLC
SN12C renal = test system: SN12C renal
SK-OV-3 ovarian = test system: SK-OV-3 ovarian
SNB-75 CNS = test system: SNB-75 CNS
RPMI-8226 leukemia = test system: RPMI-8226 leukemia
IGROV1 ovarian = test system: IGROV1 ovarian
BT-549 breast = test system: BT-549 breast
SK-MEL-5 melanoma = test system: SK-MEL-5 melanoma
PC-3 prostate = test system: PC-3 prostate
UACC-257 melanoma = test system: UACC-257 melanoma
DU-145 prostate = test system: DU-145 prostate

C=C(C)C#CC(O)(C(=O)OC1C2CCN(CC2)C1C)c1ccccc1 (stereo unspecified)
inactive: GI50 (HCC-2998 colon) > 100 µM | GI50 (SF-295 CNS) > 100 µM | GI50 (SK-MEL-28 melanoma) > 100 µM | GI50 (KM12 colon) > 100 µM | GI50 (HCT-116 colon) > 100 µM | GI50 (HCT-15 colon) > 100 µM | GI50 (CAKI-1 renal) 90.6 µM | GI50 (NCI-H522 lung) > 100 µM | GI50 (NCI/ADR-RES ovarian) > 100 µM | GI50 (OVCAR-3 ovarian) > 100 µM | GI50 (TK-10 renal) > 100 µM | GI50 (NCI-H23 lung) > 100 µM | GI50 (CCRF-CEM leukemia) > 100 µM | GI50 (UO-31 renal) > 100 µM | GI50 (M14 melanoma) > 100 µM | GI50 (MCF7 breast) > 100 µM | GI50 (U251 CNS) > 100 µM | GI50 (HT29 colon) > 100 µM | GI50 (ACHN renal) > 100 µM | GI50 (RXF 393 renal) > 100 µM | GI50 (OVCAR-8 ovarian) > 100 µM | GI50 (T-47D breast) > 100 µM | GI50 (SW-620 colon) > 100 µM | GI50 (MALME-3M melanoma) > 100 µM | GI50 (SR leukemia) > 100 µM | GI50 (HL-60(TB) leukemia) > 100 µM | GI50 (NCI-H226 lung) > 100 µM | GI50 (MOLT-4 leukemia) > 100 µM | GI50 (LOX IMVI melanoma) > 100 µM | GI50 (786-0 renal) > 100 µM | GI50 (K-562 leukemia) > 100 µM | GI50 (UACC-62 melanoma) > 100 µM | GI50 (HOP-62 NSCLC) > 100 µM | GI50 (EKVX NSCLC) > 100 µM | GI50 (COLO 205 colon) > 100 µM | GI50 (SF-268 CNS) > 100 µM | GI50 (OVCAR-5 ovarian) > 100 µM | GI50 (MDA-MB-231 breast) > 100 µM | GI50 (SF-539 CNS) > 100 µM | GI50 (MDA-N) > 100 µM | GI50 (SNB-19 CNS) > 100 µM | GI50 (MDA-MB-435) > 100 µM | GI50 (A549 NSCLC) > 100 µM | GI50 (SN12C renal) > 100 µM | GI50 (SK-OV-3 ovarian) > 100 µM | GI50 (SNB-75 CNS) > 100 µM | GI50 (RPMI-8226 leukemia) > 100 µM | GI50 (IGROV1 ovarian) > 100 µM | GI50 (BT-549 breast) > 100 µM | GI50 (SK-MEL-5 melanoma) > 100 µM | GI50 (PC-3 prostate) > 100 µM | GI50 (UACC-257 melanoma) > 100 µM | GI50 (DU-145 prostate) > 100 µM
> 100 µM: TGI (HCC-2998 colon) | TGI (SF-295 CNS) | TGI (SK-MEL-28 melanoma) | TGI (KM12 colon) | TGI (HCT-116 colon) | TGI (HCT-15 colon) | TGI (CAKI-1 renal) | TGI (NCI-H522 lung) | TGI (NCI/ADR-RES ovarian) | TGI (OVCAR-3 ovarian) | TGI (TK-10 renal) | TGI (NCI-H23 lung) | TGI (CCRF-CEM leukemia) | TGI (UO-31 renal) | TGI (M14 melanoma) | TGI (MCF7 breast) | TGI (U251 CNS) | TGI (HT29 colon) | TGI (ACHN renal) | TGI (RXF 393 renal) | TGI (OVCAR-8 ovarian) | TGI (T-47D breast) | TGI (SW-620 colon) | TGI (MALME-3M melanoma) | TGI (SR leukemia) | TGI (HL-60(TB) leukemia) | TGI (NCI-H226 lung) | TGI (MOLT-4 leukemia) | TGI (LOX IMVI melanoma) | TGI (786-0 renal) | TGI (K-562 leukemia) | TGI (UACC-62 melanoma) | TGI (HOP-62 NSCLC) | TGI (EKVX NSCLC) | TGI (COLO 205 colon) | TGI (SF-268 CNS) | TGI (OVCAR-5 ovarian) | TGI (MDA-MB-231 breast) | TGI (SF-539 CNS) | TGI (MDA-N) | TGI (SNB-19 CNS) | TGI (MDA-MB-435) | TGI (A549 NSCLC) | TGI (SN12C renal) | TGI (SK-OV-3 ovarian) | TGI (SNB-75 CNS) | TGI (RPMI-8226 leukemia) | TGI (IGROV1 ovarian) | TGI (BT-549 breast) | TGI (SK-MEL-5 melanoma) | TGI (PC-3 prostate) | TGI (UACC-257 melanoma) | TGI (DU-145 prostate)
